We go through 1 molecule from publication PMC3349770 (Journal of Medicinal Chemistry, 2012).

In this experiment the target is T1, C3aR (Homo sapiens, UniProt Q16581).
T1 sequence (Q16581 1-482): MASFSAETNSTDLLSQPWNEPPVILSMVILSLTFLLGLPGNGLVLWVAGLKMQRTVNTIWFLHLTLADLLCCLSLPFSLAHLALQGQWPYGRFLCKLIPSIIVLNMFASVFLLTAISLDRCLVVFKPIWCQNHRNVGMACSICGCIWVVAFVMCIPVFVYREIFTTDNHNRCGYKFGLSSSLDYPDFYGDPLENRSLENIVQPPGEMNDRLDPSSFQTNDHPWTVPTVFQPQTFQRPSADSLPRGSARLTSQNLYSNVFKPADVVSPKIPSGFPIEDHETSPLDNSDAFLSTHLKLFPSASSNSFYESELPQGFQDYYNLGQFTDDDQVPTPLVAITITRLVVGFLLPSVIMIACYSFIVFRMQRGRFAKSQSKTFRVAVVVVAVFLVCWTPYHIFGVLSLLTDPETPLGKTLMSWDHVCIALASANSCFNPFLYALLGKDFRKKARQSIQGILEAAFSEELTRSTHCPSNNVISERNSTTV
Put plainly: Calcium flux assay in dbcAMP differentiated U937 cells, agonist mode. The class given is cell-based. (Calcium assays in cells follow changes in intracellular calcium, usually with a dye or a luminescent sensor.)

pEC50: −log10 of the molar value.

Regarding `CC(=O)N[C@@H](Cc1c[nH]c2ccccc12)C(=O)N[C@@H](Cc1c[nH]c2ccccc12)C(=O)N[C@@H](CC(=O)O)C(=O)N[C@@H](CCCNC(=N)N)C(=O)N[C@@H](CCCNC(=N)N)C(=O)N[C@@H](Cc1c[nH]c2ccccc12)C(=O)N[C@@H](CCCNC(=N)N)C(=O)N[C@@H](C)C(=O)N[C@@H](CO)C(=O)N[C@@H](CCCCN)C(=O)N[C@@H](CC(C)C)C(=O)NCC(=O)N[C@@H](CC(C)C)C(=O)N[C@@H](C)C(=O)N[C@@H](CCCNC(=N)N)C(=O)O` [SQ007-5, WWDRRWRASKLGLAR], the pEC50 (commonly −log10 of the EC50, conventionally taken in molar units) is 5.70.
